# Measurements taken from PubChem BioAssay AID651567 (National Center for Advancing Translational Sciences (NCATS), 2012).
# Only a part is listed here, and it is no random draw. Results filed as inconclusive are left out. Active and inactive are the calls of the source. Calls follow the shape of the dose curve; as a rule, active = well fitted inhibition curve with a large enough effect; inconclusive = small, poorly fitted or top-dose-only effect; inactive = no such curve, though single readings can be large or run the other way.
# Assay: qHTS Assay to Find Inhibitors of Chronic Active B-Cell Receptor Signaling: Hit Validation in OCI-Ly3 Assay
# Settings: OCI-Ly3 IkB-luciferase reporter, Chroma-Glo luminescence, 4 h; at 46.1 µM (top of the series)
# From the text: Diffuse large B-cell lymphoma (DLBCL) is the most common category of non-Hodgkin lymphoma, with ~20,000 new cases per year in the United States. DLBCL should be regarded as a collection of different neoplasms. Microarray gene expression analysis has defined two principal types of DLBCL, named for their similarity to normal B cell stages or activation states: a germinal center B-cell (GCB) type, and an activated B-cell (ABC) type. In ABC-DLBCL, a constitutive high-level activity of the NF-kappaB family of transcription factors has been observed (1) and NF-kappaB target genes are more highly expressed in ABC primary tumors than in GCB tumors. […]
# Cells were seeded in 1536-well plates at 5000 cells/3ul in IMDM medium containing 0.5% FBS, w/o phenol red, L-glutamine, 25 mM HEPES, 3 mg/ml sodium bicarbonate. […] The plates were measured on a ViewLux plate reader for green luminescence (540/20 nm filter) and red luminescence (618/8 nm filter). The green and red luminescent signals were corrected for red and green luminescence filter overlap using previously determined filter calibration constants (determined using the procedure outlined in the Promega Technical Manual). The %Activity was determined from the ratio of corrected green/red luminescent values. […] The concentration-effect curves were then classified based on curve quality (r2), response magnitude and degree of measured activity. […]
# % is scaled to controls: 0 for no effect and ±100 for the full control effect.
row,SMILES,"activity change, negative = inhibition"
1,COc1ccc(C2=NCC(CBr)S2)cc1 (stereo unspecified),inactive: 0.165%
